Data published in a compilation of properties of binary mixtures.

Experiment: xn = mol fraction of the nth substance listed
Conditions: 100 kPa

CCC[N+](CCC)(CCC)CCC.[Br-] + OCCO
viscosity [mPa·s]
Conditions	298 K	308 K	328 K	338 K	348 K
x1 = 0.25	72.5	–	–	–	–
x2 = 0.75	72.5	42	17	12.5	9
